# Assay results published in article PMC6271771, “4-Amino-substituted Benzenesulfonamides as Inhibitors of Human Carbonic Anhydrases” (Molecules, 2014).
# By UniProt entry, the sequences of proteins in these tests, tags left out. Residues count along the entry.
# UniProt O43570, 30-289 limits assumed: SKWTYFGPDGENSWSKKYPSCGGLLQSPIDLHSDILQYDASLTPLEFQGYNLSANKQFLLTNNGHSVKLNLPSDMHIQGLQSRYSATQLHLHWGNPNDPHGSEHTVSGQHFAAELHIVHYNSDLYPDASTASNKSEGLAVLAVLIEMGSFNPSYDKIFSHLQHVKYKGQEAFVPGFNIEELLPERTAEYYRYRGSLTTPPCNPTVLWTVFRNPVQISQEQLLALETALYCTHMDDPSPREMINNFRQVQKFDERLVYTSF
# UniProt P23280, 18-308: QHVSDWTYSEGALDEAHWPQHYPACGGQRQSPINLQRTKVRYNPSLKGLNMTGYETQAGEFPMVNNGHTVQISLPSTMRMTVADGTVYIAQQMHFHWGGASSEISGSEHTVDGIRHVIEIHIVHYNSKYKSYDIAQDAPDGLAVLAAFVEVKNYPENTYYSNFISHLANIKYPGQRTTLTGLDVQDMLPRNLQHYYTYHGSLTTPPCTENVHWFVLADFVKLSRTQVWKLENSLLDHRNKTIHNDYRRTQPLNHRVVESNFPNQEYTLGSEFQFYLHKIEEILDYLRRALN
# Columns and labels:
# CA XII = CA XII (Homo sapiens, UniProt O43570); assay: Fluorescent thermal shift assay (FTSA), CA XII; assay type: binding; design: made in house; settings: pH 7.0, 37 °C, read-out: Compound Dissociation Constants Kd for CA XII
# CA VI = target: T1, CA VI (Homo sapiens, UniProt P23280); assay: Fluorescent thermal shift assay (FTSA), CA VI; assay type: binding; settings: Kd (FTSA) versus Ki of ref 35
# T1 construct: made in house
compound,measurement,setting,value
"Nc1ccc(S(N)(=O)=O)cc1 [Compound 1, 4-Aminobenzene-1-sulfonamide, reference compound]",Kd,CA XII,67 µM
same,"difference between own Kd and Ki of Murakami and Sly, CA VI",CA VI,5.7 times
